Literature values in PMC8210154, “Tumor-selective, antigen-independent delivery of a pH sensitive peptide-topoisomerase inhibitor conjugate suppresses tumor growth without systemic toxicity” (NAR Cancer, 2021).

System: JIMT-1 xenografts
Set-up: method as in PMID 27026201
Settings: highest ADC doses; cited from earlier work

Question: With DS-8201 as the substance, how does the “efficacy in JIMT-1 model” value read?
Answer: only modest efficacy
